Laboratory results published in publication PMC10503972, “Synthesis, predictions of drug-likeness, and pharmacokinetic properties of some chiral thioureas as potent enzyme inhibition agents” (Turkish Journal of Chemistry, 2021).

Each substance was assayed against urease (Canavalia ensiformis, UniProt P07374). Conditions: read-out: Urease assay IC50; means ± S.E.M. of three parallel measurements.

| Substance | IC50 |
| --- | --- |
| N-(4-(dimethylamino)phenyl)-N′-(2-mercapto-carboxyethanyl)thiourea [Compound 16] | 44.3 ± 1.1 µM |
| N-(3,4,5-trimethoxyphenyl)-N′-(2-mercapto-carboxyethanyl)thiourea [Compound 14] | 13.4 ± 0.8 µM |
| N-(4-(trifluoromethyl)phenyl)-N′-(2-mercapto-carboxyethanyl)thiourea [Compound 5] | 46.2 ± 0.7 µM |
| N-(2,5-dimethoxyphenyl)-N′-(2-mercapto-carboxyethanyl)thiourea [Compound 11] | 22.1 ± 0.1 µM |
| N-(4-methoxyphenyl)-N′-(2-mercapto-carboxyethanyl)thiourea [Compound 6] | 31.3 ± 0.2 µM |
| N-(4-fluorophenyl)-N′-(2-mercapto-carboxyethanyl)thiourea [Compound 4] | 61.5 ± 0.3 µM |
| N-(4-chlorophenyl)-N′-(2-mercapto-carboxyethanyl)thiourea [Compound 3] | 58.2 ± 0.4 µM |
| N-(2,5-dichlorophenyl)-N′-(2-mercapto-carboxyethanyl)thiourea [Compound 15] | 55.4 ± 1.3 µM |
| N-(3,5-dimethoxyphenyl)-N′-(2-mercapto-carboxyethanyl)thiourea [Compound 13] | 16.5 ± 0.6 µM |
| N-(2,4-dimethoxyphenyl)-N′-(2-mercapto-carboxyethanyl)thiourea [Compound 10] | 20.9 ± 1 µM |
| N-(2-chloro-5-(trifluoromethyl)phenyl)-N′-(2-mercapto-carboxyethanyl)thiourea [Compound 9] | 50.2 ± 0.1 µM |
| N-(5-chloro-2-methoxyphenyl)-N′-(2-mercapto-carboxyethanyl)thiourea [Compound 8] | 34.8 ± 0.2 µM |
| N-phenyl-N′-(2-mercapto-carboxyethanyl)thiourea [Compound 1] | 64.6 ± 0.4 µM |
| N-(4-bromophenyl)-N′-(2-mercapto-carboxyethanyl)thiourea [Compound 2] | 66.1 ± 0.7 µM |
| N-(3,4-dimethoxyphenyl)-N′-(2-mercapto-carboxyethanyl)thiourea [Compound 12] | 26.5 ± 0.4 µM |
| N-(4-cyanophenyl)-N′-(2-mercapto-carboxyethanyl)thiourea [Compound 7] | 68.3 ± 0.5 µM |
